Test system: MAGL
Assay: Competitive [3H]2-OG hydrolysis assay in pig brain homogenate
Type: biochemical
Method: Enzymatic hydrolysis assay of novel ECs: the enzymatic hydrolysis of the ethanolamine derivatives JEA and ω-3 AEA and the glycerol derivatives 1/2-JG and ω-3 1/2-AG was evaluated in competitive hydrolysis assays using [^3H] AEA and [^3H] 2-OG, respectively. The reaction was performed using worm homogenate (200 or 100 µg per sample) or pig brain homogenate (200 µg per sample) in 194 μL of assay buffer (10 mM Tris-HCl, 1 mM EDTA, 0.1 % BSA, pH 8.0). Different concentrations of JEA and ω-3 AEA were co-incubated for 20 min at 37 °C with a mixture of 1 nM [^3H]AEA and unlabeled AEA (final 2µM), while 1/2-JG and ω-3 1/2-AG were co-incubated with a mixture of 1nM [^3H]2-OG and unlabeled 2-OG (final 100 nM). The reaction was stopped by adding 400 μL of ice-cold mixture CHCl3-CH3OH (1:1 v/v), and, subsequently, tubes were vortexed and centrifuged for 10 min at 4 °C and 10,000 rpm. Finally, the upper aqueous phase was transferred to scintillation vials and mixed with 3 mL of Ultima Gold scintillation liquid. Signal was detected with TRICARB 2100TR scintillation counter and results were analyzed with GraphPad Prism 5® and expressed as [^3H] AEA or [^3H] 2-OG hydrolysis (% of vehicle).

Omega-3 1/2-arachidonoyl glycerol [ω-3 1/2-AG]
hydrolysis by MAGL (competition with tritiated 2-OG): readily hydrolyzed

Reference: PMC7564282, “Juniperonic Acid Biosynthesis is Essential in Caenorhabditis elegans Lacking Δ6 Desaturase (fat-3) and Generates New ω-3 Endocannabinoids” (Cells, 2020)
